For two compounds, IC50 results are on record in patent US20030180797A1, “Identification of ligands for a receptor family and related methods” (priority 2002, published 2003).

Experiment [1] has as its target human inosine monphosphate dehydrogenase II (IMPDH) (Homo sapiens, UniProt P12268). Description: Inosine-5'-monophosphate dehydrogenase (IMPDH) kinetic spectrophotometric assay, NAD+ reduction. To be noted: read-out: IC50 for IMPDH; common ligand mimics, FIG. 11, 13.
In the next experiment the target is human Aldose Reductase (Homo sapiens, UniProt P15121). Nature of the experiment: Aldose reductase (AR) kinetic spectrophotometric assay. The following applies: read-out: IC50 for AR; common ligand mimics, FIG. 11.

Take `N=C1NC(=O)/C(=C/c2ccc(O)c([N+](=O)[O-])c2)S1`: in experiment [1], the IC50 was > 75000 nM.

For `O=C1NC(=O)/C(=C/c2ccc(-c3ccc(C(=O)O)cc3)o2)S1`, at human Aldose Reductase, the IC50 worked out at 2300 nM.
